# Values of other authors as cited in patent US8748448B2, “Combination analgesic employing opioid agonist and neutral antagonist” (AIKO Biotechnology, priority 2007, dated 2014).
# Only a part of the results on these compounds is given; other tests are left out.
# Conditions: given orally unless otherwise indicated; cited from earlier work
structure (smiles),measurement,value
CCC(=O)N(c1ccccc1)C1(COC)CCN(CCc2cccs2)CC1,Half-life of active metabolites,4.4 h
